Assay results: publication PMC12567851, “Inhibition of Muscle-Specific Protein Kinase (MuSK) Releases Organophosphate-Aged Acetylcholinesterase (AChE) from C2C12 Cells” (2025)

By UniProt entry, the sequences of proteins in these tests, tags left out. Residues count along the entry.
UniProt O15146, 575-856 limits assumed: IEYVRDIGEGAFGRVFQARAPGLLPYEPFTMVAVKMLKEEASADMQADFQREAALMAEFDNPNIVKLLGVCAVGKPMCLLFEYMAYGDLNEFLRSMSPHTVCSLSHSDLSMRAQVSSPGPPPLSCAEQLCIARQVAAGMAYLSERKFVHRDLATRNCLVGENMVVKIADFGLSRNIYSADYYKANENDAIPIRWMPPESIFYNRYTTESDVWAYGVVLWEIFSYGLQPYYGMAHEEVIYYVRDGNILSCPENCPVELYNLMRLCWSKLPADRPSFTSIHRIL

Biological target: muscle-specific protein kinase (MuSK) (Homo sapiens, UniProt O15146)
Experiment: PhosphoSens (Sox peptide, ChEF) fluorescence kinase assay, […] MuSK, […] ATP, […] h preincubation

Cn1cc(-c2ccc3c(c2)ncn3-c2ccc(CC(=O)Nc3cc(C(C)(C)C)on3)cc2)cn1
IC50: 18.3 nM
